Assay results published in patent US20120045433A1, “COMBINATION THERAPY” (priority 2010, published 2012).

How the values were obtained:
[1] = Toxicity/tolerability (body weight change, mortality, gross observation) in HT-29 xenograft mice; assay type: in vivo; details: self-limiting even under continuous treatment
[2] = system: human HT-29 cell xenografts; experiment: Antitumor activity (tumor growth inhibition, regression) in mice with human HT-29 colorectal cancer xenografts; assay type: in vivo; details: baseline at start of treatment (day 11 post implant)
Text: Mice were implanted with human HT-29 cell xenografts. The mice, cell line used, and implantation are described below.
Tumor measurements were taken once or twice per week. All animals were individually followed throughout the experiment.

For cetuximab, the “EGFR inhibitor related skin rash” value [1] was “common” and the “Mean Tumor Volume (mm^3) Start Study” value [2] was 132.09 mm^3.
